Data set [1] relates to Oatp1a/1b;Abcc3. Briefly: Plasma and liver pharmacokinetics after oral sorafenib in Oatp1a/1b. Format: in vivo, mouse. Conditions: after oral sorafenib 10 mg/kg, Oatp1a/1b;Abcc3(−/−) mice.
The subject of data set [2] is mouse intestinal β-glucuronidases. Description: Ex vivo cecal incubations of SG. It is filed as in vitro ADME. Conditions: SG 2 µM.
Data set [3] is classed as in vivo, mouse. Conditions: oral SG 10 mg/kg, initial study.
Data set [4] concerns Oatp1a/1b;Abcc2. Conditions: after oral sorafenib 10 mg/kg, Oatp1a/1b;Abcc2(−/−) mice.
The subject of data set [5] is Oatp1a/1b. Briefly: Plasma and liver pharmacokinetics after oral sorafenib in Oatp1a/1b. It is filed as in vivo, mouse. The settings on record: after oral sorafenib 10 mg/kg, Oatp1a/1b(−/−) mice.
For data set [6], the system named is Abcc3. Description: Plasma and liver pharmacokinetics after oral sorafenib in Abcc3. It is filed as in vivo, mouse. The settings on record: after oral sorafenib 10 mg/kg; Abcc3(−/−) mice.
For data set [7], the system named is Oatp1a/1b;Abcc2;Abcc3. The settings on record: after oral sorafenib 10 mg/kg, Oatp1a/1b;Abcc2;Abcc3(−/−) mice.
The nature of data set [8]: Ex vivo microsomal incubation of sorafenib, rat liver microsomes. Format: in vitro ADME. The settings on record: microsomes 1 mg/ml, 10 µM sorafenib, 60 min.

Regarding sorafenib-glucuronide [SG], in data set [1], the “SG levels in liver versus wildtype” value is “only a slight increase”; the “SG liver-to-plasma ratio versus wildtype” value is “large decrease”; the “partial reversal of the increase in SG plasma levels, versus Oatp1a/1b(−/−) mice” value is reported as ~ 2 fold. The “increased plasma levels of SG versus wildtype, experiment terminated at 2 hours” value in data set [1] (2 hours) is 56 fold. Besides, the “SG levels in crude suspension of cecal content” value in data set [2] (6-hour period) is on record as “time-dependent decrease”. The “sorafenib formation from SG after heat-pretreatment of cecal samples” value in data set [2] (heat pre-treatment 65°C) is given as “abrogation”. For the same substance, in data set [3], the “time of elimination of SG from plasma” value lay in the range of 1 to 2 h and the “time of peak SG concentrations” value was 15 min. For the same substance, in data set [4], the “SG liver-to-plasma ratio compared to wildtype mice” value is given as “decreased”, the “increase in plasma exposure of SG compared to Oatp1a/1b(−/−) mice” value was 12.7 fold and the “increase in plasma exposure of SG compared to wildtype mice” value is given as 909 fold. Also, the “liver levels of SG, higher compared to wildtype mice” value in data set [4] (at 2 hours) is on record as 1.8 fold. In data set [5], the “SG levels in liver versus wildtype” value was “only a slight increase”, the “SG liver-to-plasma ratio versus wildtype” value is “large decrease” and the “increase in plasma levels of SG versus wildtype” value is given as ~ 60 fold. Besides, in data set [5] (2 hours), the “increased plasma levels of SG versus wildtype, experiment terminated at 2 hours” value came out at 125 fold. In addition, in data set [6], the “SG liver-to-plasma ratio relative to Abcc3-proficient counterpart (wildtype)” value is listed as “somewhat increased” and the “plasma SG levels versus wildtype” value was “did not lead to altered”. Moreover, in data set [7], the “SG liver-to-plasma ratio compared to wildtype mice” value is on record as “decreased” and the “SG plasma exposure, reduction compared to Oatp1a/1b;Abcc2(−/−) mice” value came to 30%. For the same substance, in data set [7] (at 2 hours), the “increase in SG liver-to-plasma ratios compared to Oatp1a/1b;Abcc2(−/−) mice” value worked out at 1.7 fold and the “increase in absolute levels of SG in liver compared to Oatp1a/1b;Abcc2(−/−) mice” value was 1.5 fold. For the same substance, in data set [8], the “SG formation in rat liver microsomes (BLQ, assay limit of SG quantitation)” value is given as less than 0.26 pmol/min/mg.

These data come from paper PMC4490028 (Cancer research, 2015).
